The record followed here is patent US20090120809A1, “Nitroreductase biosensors for detecting nitro-compounds” (published 2009).

By UniProt entry, the sequences of proteins in these tests, tags left out. Chains listed by the source or under a name are the forms on record and can include a tag or linker. Residues count along the entry.
UniProt P38489, 2-217 with tags or gaps: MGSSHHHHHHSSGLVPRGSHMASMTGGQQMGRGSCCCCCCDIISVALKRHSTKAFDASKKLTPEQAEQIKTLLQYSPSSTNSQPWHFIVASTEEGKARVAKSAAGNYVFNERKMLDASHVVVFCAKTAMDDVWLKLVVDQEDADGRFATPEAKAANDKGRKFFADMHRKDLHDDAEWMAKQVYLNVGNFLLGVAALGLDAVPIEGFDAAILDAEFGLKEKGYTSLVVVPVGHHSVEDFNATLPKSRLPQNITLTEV

The assay deals with Cys6 tagged nfnB nitroreductase (Escherichia coli, UniProt P38489). Description: Nitroreductase UV assay (NADPH, 340 nm) with various nitro substrates. The note with it: FIG. 5, 25° C. The procedure:
A UV assay and associated spectra were carried out on the NTR obtained at the end of Section 2.3 in solution (≅1.0 μM^(Final), 10 μl), in a cuvette with buffer tris-HCl pH 7.4 (50 mM, 500 μl), NADPH (1 mM, 100 μl), nitroaromatic compound (substrate, various conc.), and flavin mononucleotide (FMN) (1 mM, 5 μl), made up to 1 ml with distilled water at 25° C.
The spectra were collected at a scan rate of 500 nm/min between 220-500 nm resulting in 1 min scans, and the assays were run at 340 nm for 2 min each, using an Uvikon 943 double beam spectrophotometer. The parameters of the spectra and assays are as noted above unless otherwise stated. All spectral measurements were carried out against a blank consisting of the assay solution detailed above, but lacking the nitroreductase enzyme, and all assay measurements were carried out against a blank consisting of the assay solution lacking the substrate, unless otherwise stated.
The influence of the nitroreductase on a buffer solution containing 4-nitrobenzoate (625 μM) was assessed using UV-vis; the nitroreductase (10 μl) was placed in the cuvette prior to run 2.

SMILES strings stand for the structures. This is a selection: effects in other tests are not listed, and their absence says nothing.

As to `Cc1ccc([N+](=O)[O-])cc1[N+](=O)[O-]`, the “activity of Cys6 tagged nfnB nitroreductase on various substrates (substrate quality)” value is “good substrates”.
